Measurements reported in PubChem BioAssay AID1188 (EPA DSSTox, 2008).

Test system: Fathead minnow (Pimephales promelas) acute toxicity, lethality
Assay: DSSTox (EPAFHM) EPA Fathead Minnow Acute Toxicity

| Compound | Potency [µM] |
| --- | --- |
| O=[N+]([O-])c1ccc([N+](=O)[O-])c(O)c1 | 18.2 |
| Cc1cc([N+](=O)[O-])cc([N+](=O)[O-])c1O | 8.73 |
| O=[N+]([O-])c1ccc([N+](=O)[O-])cc1 | 4.22 |
